From ChEMBL document CHEMBL3994596, “Structural Basis for Potency and Promiscuity in Poly(ADP-ribose) Polymerase (PARP) and Tankyrase Inhibitors” (J Med Chem, 2017)

Sequences of proteins named here, by UniProt entry; tags and fusion partners are left off. A change or cut given only in a name is not applied to a line headed by its entry.
UniProt Q460N5, whole entry: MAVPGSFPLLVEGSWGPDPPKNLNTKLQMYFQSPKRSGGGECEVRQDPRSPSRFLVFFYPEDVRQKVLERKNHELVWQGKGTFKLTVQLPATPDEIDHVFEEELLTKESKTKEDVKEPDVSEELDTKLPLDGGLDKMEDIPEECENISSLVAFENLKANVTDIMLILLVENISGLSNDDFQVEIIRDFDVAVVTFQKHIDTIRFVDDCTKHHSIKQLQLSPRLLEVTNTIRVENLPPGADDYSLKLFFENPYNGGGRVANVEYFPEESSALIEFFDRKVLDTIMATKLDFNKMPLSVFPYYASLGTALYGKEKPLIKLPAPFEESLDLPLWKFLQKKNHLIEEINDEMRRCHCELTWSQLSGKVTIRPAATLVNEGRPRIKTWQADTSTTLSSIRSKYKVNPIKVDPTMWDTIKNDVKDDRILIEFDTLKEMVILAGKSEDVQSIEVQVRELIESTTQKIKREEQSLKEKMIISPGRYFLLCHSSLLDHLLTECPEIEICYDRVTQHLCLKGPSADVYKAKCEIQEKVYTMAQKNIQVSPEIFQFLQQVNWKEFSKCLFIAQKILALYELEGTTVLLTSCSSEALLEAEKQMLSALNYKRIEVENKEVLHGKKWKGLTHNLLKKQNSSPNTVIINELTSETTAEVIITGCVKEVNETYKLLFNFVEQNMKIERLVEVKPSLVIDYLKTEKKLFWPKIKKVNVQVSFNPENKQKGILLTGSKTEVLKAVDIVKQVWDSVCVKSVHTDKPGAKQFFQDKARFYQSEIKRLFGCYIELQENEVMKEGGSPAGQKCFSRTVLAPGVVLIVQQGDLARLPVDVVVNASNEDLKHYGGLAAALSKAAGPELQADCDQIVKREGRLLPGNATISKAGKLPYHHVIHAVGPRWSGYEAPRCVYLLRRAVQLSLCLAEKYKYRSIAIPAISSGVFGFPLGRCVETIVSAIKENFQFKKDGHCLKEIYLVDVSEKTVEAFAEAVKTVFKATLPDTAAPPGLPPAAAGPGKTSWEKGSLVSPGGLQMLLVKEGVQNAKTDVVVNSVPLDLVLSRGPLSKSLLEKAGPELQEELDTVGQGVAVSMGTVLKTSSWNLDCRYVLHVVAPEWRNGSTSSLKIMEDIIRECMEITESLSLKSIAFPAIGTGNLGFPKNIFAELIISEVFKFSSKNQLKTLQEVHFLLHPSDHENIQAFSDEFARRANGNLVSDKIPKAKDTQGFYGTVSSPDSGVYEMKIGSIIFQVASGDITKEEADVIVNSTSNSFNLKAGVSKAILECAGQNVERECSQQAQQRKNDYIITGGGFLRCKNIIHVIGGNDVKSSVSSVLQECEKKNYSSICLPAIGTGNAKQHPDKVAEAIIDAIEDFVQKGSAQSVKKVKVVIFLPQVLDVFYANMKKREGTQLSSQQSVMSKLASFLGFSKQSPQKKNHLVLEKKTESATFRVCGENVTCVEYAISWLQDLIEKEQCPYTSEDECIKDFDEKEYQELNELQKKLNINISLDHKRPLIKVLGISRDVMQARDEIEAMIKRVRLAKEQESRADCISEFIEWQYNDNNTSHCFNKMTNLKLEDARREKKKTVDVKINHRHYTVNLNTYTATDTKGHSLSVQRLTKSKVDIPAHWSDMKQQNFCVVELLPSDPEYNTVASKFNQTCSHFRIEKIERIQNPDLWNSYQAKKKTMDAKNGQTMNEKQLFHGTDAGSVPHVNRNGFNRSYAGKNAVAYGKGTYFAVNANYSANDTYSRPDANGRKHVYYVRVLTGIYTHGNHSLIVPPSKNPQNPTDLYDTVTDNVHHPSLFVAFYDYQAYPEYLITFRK
UniProt Q9UKK3: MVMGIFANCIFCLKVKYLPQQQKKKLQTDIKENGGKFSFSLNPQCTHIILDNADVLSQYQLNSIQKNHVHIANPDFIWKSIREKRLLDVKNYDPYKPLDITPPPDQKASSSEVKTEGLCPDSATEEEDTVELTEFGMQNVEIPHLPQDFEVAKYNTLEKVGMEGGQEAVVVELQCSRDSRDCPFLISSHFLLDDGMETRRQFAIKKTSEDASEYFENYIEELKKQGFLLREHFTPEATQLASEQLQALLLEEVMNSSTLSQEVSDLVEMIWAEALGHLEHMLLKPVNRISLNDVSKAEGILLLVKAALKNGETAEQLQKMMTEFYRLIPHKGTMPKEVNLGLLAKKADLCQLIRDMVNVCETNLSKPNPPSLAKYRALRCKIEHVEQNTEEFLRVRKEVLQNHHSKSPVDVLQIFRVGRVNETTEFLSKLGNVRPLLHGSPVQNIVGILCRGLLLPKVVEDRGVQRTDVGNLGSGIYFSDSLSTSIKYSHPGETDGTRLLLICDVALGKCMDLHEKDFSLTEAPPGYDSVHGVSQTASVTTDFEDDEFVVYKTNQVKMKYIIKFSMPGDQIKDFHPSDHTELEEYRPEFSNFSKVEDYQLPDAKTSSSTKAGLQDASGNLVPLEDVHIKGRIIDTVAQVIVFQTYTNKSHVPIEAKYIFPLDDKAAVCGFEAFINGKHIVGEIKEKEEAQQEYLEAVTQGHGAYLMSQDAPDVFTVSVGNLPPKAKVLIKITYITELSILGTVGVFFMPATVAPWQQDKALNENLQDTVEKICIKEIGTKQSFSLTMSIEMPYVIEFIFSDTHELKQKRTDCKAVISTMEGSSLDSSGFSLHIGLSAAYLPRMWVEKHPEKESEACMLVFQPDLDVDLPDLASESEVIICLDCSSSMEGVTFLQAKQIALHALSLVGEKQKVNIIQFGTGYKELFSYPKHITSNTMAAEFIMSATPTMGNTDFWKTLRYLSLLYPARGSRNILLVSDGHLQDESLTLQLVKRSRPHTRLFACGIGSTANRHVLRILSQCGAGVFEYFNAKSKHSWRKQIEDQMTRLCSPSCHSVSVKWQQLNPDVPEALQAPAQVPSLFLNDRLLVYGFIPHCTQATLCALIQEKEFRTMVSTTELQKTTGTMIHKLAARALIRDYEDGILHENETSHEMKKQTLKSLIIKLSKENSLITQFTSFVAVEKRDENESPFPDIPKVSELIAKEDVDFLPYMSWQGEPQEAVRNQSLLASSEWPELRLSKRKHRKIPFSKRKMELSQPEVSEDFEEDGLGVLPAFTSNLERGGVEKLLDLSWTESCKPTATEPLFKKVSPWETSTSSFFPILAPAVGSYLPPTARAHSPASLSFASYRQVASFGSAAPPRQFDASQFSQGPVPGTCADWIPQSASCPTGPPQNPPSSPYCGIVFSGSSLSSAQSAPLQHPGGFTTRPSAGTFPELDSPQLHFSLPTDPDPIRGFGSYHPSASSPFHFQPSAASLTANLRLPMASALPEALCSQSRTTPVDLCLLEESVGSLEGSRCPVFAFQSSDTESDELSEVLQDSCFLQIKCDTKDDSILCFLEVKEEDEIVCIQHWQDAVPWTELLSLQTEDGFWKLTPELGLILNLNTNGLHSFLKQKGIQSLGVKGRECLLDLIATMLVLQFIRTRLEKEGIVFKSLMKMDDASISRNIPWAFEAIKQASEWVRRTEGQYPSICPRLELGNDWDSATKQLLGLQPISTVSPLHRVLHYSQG

Legend:
[1] = target: T1, Poly [ADP-ribose] polymerase tankyrase-2 (Homo sapiens, UniProt Q9H2K2)
T1 sequence (Q9H2K2 whole entry): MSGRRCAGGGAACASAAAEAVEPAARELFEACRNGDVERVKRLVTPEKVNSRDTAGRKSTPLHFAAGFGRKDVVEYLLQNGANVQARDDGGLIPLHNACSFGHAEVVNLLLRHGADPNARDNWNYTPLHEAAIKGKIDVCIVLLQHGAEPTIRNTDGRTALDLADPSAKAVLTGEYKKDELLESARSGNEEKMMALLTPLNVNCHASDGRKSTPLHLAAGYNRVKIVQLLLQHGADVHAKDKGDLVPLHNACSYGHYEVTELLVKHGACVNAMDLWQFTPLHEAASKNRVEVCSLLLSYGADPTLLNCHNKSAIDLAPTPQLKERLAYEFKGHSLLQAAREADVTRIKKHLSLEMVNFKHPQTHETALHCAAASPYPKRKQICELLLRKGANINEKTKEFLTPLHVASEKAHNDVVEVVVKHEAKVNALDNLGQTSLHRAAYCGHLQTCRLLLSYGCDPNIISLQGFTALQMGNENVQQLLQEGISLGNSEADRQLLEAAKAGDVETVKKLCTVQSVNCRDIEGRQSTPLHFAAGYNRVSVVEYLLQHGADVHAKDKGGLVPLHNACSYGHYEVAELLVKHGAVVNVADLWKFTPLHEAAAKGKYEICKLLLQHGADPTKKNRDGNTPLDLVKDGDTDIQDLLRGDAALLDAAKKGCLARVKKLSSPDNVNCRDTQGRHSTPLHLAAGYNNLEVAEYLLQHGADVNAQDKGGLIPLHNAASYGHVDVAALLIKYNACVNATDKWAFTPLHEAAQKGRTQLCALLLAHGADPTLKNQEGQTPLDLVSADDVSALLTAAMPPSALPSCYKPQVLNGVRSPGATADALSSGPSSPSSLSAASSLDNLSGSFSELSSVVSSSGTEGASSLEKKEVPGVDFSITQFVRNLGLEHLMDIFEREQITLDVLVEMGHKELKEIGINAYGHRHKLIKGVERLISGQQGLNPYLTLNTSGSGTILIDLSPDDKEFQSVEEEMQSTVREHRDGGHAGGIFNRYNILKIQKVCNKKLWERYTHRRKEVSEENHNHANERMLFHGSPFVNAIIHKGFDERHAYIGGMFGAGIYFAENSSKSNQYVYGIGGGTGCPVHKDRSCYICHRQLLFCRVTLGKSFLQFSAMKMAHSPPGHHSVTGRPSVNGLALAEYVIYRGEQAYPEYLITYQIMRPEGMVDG

[2] = target: Protein mono-ADP-ribosyltransferase PARP14 (Homo sapiens, UniProt Q460N5)
[3] = target: T2, Protein mono-ADP-ribosyltransferase PARP15 (Homo sapiens, UniProt Q460N3)
T2 sequence (Q460N3 whole entry): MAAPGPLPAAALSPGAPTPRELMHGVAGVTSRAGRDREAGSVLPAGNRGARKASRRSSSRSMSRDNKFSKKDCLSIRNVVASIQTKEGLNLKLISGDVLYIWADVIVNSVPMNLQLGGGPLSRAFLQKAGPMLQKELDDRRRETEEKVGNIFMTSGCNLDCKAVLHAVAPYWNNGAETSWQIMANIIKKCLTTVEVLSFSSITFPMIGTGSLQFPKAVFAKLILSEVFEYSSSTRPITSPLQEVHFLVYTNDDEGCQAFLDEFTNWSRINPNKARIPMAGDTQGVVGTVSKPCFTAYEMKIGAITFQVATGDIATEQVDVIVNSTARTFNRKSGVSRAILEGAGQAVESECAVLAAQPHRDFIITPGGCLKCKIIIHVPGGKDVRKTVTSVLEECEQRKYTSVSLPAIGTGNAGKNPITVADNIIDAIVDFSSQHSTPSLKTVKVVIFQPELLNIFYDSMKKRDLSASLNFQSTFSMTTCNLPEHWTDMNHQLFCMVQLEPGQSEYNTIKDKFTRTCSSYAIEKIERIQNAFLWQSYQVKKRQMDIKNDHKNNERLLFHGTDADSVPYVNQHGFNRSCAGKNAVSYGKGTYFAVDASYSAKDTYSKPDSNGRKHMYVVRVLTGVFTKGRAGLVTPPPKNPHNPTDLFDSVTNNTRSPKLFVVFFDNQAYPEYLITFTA

[4] = target: Protein mono-ADP-ribosyltransferase PARP4 (Homo sapiens, UniProt Q9UKK3)
[5] = target: T3, Protein mono-ADP-ribosyltransferase PARP10 (Homo sapiens, UniProt Q53GL7)
T3 sequence (Q53GL7 whole entry): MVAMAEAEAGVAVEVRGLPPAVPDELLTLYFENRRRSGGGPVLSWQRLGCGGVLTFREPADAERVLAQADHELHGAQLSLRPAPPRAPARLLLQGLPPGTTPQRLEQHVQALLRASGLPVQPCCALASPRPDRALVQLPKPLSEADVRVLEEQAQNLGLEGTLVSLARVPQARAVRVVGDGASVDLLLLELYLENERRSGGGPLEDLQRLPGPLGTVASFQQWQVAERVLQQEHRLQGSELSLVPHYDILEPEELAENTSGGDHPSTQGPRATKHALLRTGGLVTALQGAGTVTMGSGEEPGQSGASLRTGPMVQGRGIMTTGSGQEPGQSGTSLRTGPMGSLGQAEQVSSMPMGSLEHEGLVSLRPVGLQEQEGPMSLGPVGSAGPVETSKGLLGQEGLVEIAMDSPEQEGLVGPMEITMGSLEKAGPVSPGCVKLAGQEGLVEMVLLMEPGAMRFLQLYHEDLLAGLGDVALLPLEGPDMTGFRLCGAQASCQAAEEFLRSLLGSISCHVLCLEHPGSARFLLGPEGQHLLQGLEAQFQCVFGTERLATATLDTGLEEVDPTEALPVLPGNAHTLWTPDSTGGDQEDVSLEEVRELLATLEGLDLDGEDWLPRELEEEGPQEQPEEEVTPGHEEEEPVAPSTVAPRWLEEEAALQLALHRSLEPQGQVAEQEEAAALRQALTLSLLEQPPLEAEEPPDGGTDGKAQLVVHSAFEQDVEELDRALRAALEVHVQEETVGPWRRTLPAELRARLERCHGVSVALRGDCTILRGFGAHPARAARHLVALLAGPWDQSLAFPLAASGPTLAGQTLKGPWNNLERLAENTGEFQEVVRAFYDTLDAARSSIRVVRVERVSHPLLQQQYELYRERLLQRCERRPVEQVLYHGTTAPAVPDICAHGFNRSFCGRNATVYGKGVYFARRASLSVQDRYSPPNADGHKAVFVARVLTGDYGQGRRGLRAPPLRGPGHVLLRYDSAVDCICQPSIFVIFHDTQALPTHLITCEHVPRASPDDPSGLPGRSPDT

[6] = target: T3, Protein mono-ADP-ribosyltransferase PARP10; remark: listed apart in the source

| Compound | IC50 [1] | IC50 [2] | IC50 [3] | pIC50 [4] | IC50 [5] | IC50 [6] |
| --- | --- | --- | --- | --- | --- | --- |
| Cc1cc(N2C[C@@H](C)N[C@@H](C)C2)ncc1-c1ccc(-c2nc3c(ccn3C)c(=O)[nH]2)cc1 | 0.0006 µM and 0.000479 µM | 3.4 µM | 25.6 µM | inactive | – | – |
| NC(=O)c1cccc2cn(-c3ccc([C@@H]4CCCNC4)cc3)nc12 [NIRAPARIB] | 5.13 µM | 17.3 µM and 1.74 µM | 29.2 µM | – | 3.3 µM | 1.9 µM |

Values joined by “and” are separate entries in the source; they are usually repeats but may differ in a detail not shown here. Equal values may be shown once. Active and inactive are the calls of the source. The calls are words filed in the database; no cut-off is given here.
